According to patent US5629198A (priority 1991, dated 1997):

Key:
[1] = test system: male ICR mice; assay: One-administration toxicity test, intraperitoneal (Test Example 9); format: in vivo
Experimental: A specimen was dissolved at a protein concentration of 100 mg/ml in a physiological saline (pH 7.0), and the solution was sterilely filtered through a membrane filter of 0.22 μm. The filtrate was intraperitoneally administered to male ICR mice (Charles River Japan, Inc.) aged 5 weeks and 5 days. Defining the day of the administration as 0 day, their weights were measured on the second, fourth, seventh, tenth and fifteenth days.
In each of the toxicity tests, organ autopsy was conducted to all the mice on the fifteenth day after the administration.

[2] = test system: male ICR mice; assay: Repeated-administration toxicity test, 2 weeks (Test Example 10); format: in vivo; details: intravenous, 80, 200 and 500 mg/kg/day
Experimental: S-HSA-EDC-Hemin was repeatedly administered for 2 weeks at doses of 80, 200 and 500 mg/kg/day in veins of male ICR mice (Charles River Japan, Inc., 15 mice per group) to observe its effects.

Substance: S--HSA--EDC-Hemin: complex of succinylated human serum albumin and EDC-Hemin
- organ autopsy on the fifteenth day [1]: intestinal adhesion, hepatomegaly and the like
- deaths throughout the administration period [2]: no deaths
